Assay results taken from patent US6756370B1, “Piperidine alcohols” (Merck Patent GmbH, priority 1999, dated 2004).
pIC50: −log10 of the molar value.

The chains behind the UniProt entries cited, without tags or fusion partners.
UniProt P14842, whole entry: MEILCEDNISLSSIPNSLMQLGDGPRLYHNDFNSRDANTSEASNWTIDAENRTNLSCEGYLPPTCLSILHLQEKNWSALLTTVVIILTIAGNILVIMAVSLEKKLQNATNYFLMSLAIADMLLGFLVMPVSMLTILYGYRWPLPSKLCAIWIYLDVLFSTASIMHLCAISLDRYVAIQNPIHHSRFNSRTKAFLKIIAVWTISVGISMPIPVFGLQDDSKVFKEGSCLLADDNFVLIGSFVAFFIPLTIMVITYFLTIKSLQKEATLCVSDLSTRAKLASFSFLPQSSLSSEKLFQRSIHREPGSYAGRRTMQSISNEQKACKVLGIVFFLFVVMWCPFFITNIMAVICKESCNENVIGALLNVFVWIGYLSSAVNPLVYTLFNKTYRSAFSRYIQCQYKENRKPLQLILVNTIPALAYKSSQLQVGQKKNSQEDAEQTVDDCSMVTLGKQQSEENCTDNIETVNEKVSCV

Biological target: 5-HT2A receptors (Rattus norvegicus, UniProt P14842)
Experiment: 5-HT2A receptor binding test ([3H]ketanserin displacement)
Details: read-out: IC50 values (concentrations in mol/l at which 50% of the radioactive ligands are displaced from the binding sites), frontal rat cortex homogenate, 15 minutes at 37° C., tested form: HCl

| Compound | pIC50 |
| --- | --- |
| CCC(O)(c1ccc(F)cc1)C1CCN(CCc2ccc(Cl)s2)CC1 (centres unmarked) | 7.49 |
| Cc1sc(Cl)cc1CCN1CCC(C(C)(O)c2ccc(F)cc2)CC1 (centres unmarked) | 8.39 |
